Data: patent publication US20060100243A1 (priority 2004, published 2006)
Read-outs that look alike come from different tables or passages of the source.

Chains of the proteins cited; added tags and fusions are not shown.
UniProt P31645, whole entry: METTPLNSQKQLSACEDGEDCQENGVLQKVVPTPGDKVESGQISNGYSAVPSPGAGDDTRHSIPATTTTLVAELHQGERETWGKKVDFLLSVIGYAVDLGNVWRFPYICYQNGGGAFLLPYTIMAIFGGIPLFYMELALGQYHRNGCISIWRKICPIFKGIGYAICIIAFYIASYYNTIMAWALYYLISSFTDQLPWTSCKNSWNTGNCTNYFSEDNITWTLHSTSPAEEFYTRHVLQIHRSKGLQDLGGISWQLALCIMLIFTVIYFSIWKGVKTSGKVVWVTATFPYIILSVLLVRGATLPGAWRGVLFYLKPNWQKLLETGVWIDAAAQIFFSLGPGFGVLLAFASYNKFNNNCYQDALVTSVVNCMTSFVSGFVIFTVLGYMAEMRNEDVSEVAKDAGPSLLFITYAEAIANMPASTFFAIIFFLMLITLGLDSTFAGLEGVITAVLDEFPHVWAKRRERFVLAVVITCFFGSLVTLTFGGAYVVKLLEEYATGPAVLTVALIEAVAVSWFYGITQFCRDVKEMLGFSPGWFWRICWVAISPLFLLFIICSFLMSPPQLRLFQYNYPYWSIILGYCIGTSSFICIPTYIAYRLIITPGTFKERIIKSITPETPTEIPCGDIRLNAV
UniProt P23975, whole entry: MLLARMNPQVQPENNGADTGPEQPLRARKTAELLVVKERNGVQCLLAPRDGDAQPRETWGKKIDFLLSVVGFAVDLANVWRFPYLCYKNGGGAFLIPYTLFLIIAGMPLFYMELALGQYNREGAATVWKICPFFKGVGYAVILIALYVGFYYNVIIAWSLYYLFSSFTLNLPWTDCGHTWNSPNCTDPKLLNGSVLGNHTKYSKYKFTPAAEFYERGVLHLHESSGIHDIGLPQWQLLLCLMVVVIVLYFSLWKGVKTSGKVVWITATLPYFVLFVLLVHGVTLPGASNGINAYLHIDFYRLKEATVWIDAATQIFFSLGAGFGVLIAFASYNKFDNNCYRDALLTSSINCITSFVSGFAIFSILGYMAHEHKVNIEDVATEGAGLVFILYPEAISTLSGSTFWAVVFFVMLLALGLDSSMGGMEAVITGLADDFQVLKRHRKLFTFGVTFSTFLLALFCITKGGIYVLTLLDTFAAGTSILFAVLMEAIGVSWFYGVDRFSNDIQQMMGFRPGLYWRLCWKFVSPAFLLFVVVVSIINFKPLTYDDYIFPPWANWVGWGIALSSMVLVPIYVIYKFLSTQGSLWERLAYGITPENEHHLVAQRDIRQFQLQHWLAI

Legend:
[1] = target: T1, recombinant human serotonin transporter (Homo sapiens, UniProt P31645); assay: biochemical; conditions: SEROTONIN [I125]-RTI-55 BINDING (Ki)
T1 construct: expressed in transfected cells

[2] = target: T2, recombinant human norepinephrine transporter (Homo sapiens, UniProt P23975); assay: biochemical; conditions: HEK 293 cells, read-out: NOREPINEPHRINE [I125]-RTI-55 BINDING (Ki)
T2 construct: expressed in transfected cells

[3] = target: T2, recombinant human norepinephrine transporter; assay: cell-based; conditions: RS/SR racemates table; HEK 293 cells; read-out: NOREPINEPHRINE NE REUPTAKE (IC50)

CCCCC(c1ccc(Cl)cc1)C1CCCCN1 (single isomer, unassigned) [GG]
Ki [1]: 4800 ± 700 nM

Clc1ccc(C(C2CCCC2)C2CCCCN2)cc1 (single isomer, unassigned) [KK]
Ki ([2]; RS/SR racemates table): 3300 ± 800 nM
IC50 [3]: 1000 ± 300 nM

Clc1ccc(C(C2CCCC2)C2CCCCN2)cc1 (single isomer, unassigned) [K]
Ki ([2]; RR/SS racemates table): 380 ± 120 nM
